Activity and ED50 data for 1 molecule are collected here from ChEMBL document CHEMBL5375969, “A Novel Bifunctional μOR Agonist and σ1R Antagonist with Potent Analgesic Responses and Reduced Adverse Effects” (2023).

Data set [1] can be described thus: Toxicity in sc dosed ICR mouse assessed as rewarding effect by measuring increase in time difference after CPP conditioning at 1.5X analgesic ED50 dose measured for 30 mins by CPP test. The note with it: in vivo, 0.5 h.
In data set [2] the test system is Mus musculus. Description: Analgesic activity in sc dosed ICR mouse assessed as increase in latency time for licking and shaking the hind paw measured for 180 mins by hot plate assay. Particulars: 3 h. In general terms: Thermal pain tests record how soon the animal reacts.
Data set [3] is described as follows: Toxicity in sc dosed ICR mouse assessed as respiratory depression at 1.5X analgesic ED50 dose measured after 40 mins by whole body plethysmography. The note with it: in vivo.
The test system of data set [4] is Mus musculus. Put plainly: Analgesic activity in sc dosed 1% glacial acetic acid-induced visceral pain ICR mouse model assessed as decrease in writhing response administered 20 mins prior to acetic acid injection and measured after 5 to 20 mins. The note with it: time 25-40 min. (In writhing tests, fewer writhes than in controls are read as antinociception.)
Data set [5] is described as follows: Toxicity in sc dosed ICR mouse assessed as autonomous activity at 1.5X analgesic ED50 measured after 20 mins. Particulars: in vivo.
The subject of data set [6] is Mus musculus. Put plainly: Analgesic activity against sc dosed CFA-induced chronic pain ICR mouse model assessed as increase in mechanical paw withdrawal threshold measured for 180 mins. Particulars: 3 h.

Each structure is given as a SMILES string.

As usually defined, the ED50 is the dose at which the effect has come halfway, by size or by number of responders. Take `CCN1CC2(CCN(CCc3cc(F)ccc3F)CC2)O[C@H](C)C1=O`: the Activity result in data set [1], in data set [3] and in data set [5] was “Non-Toxic” throughout. For the same molecule, the ED50 turned out to be 3.1 µmol/kg with Mus musculus [2], 1.3 µmol/kg in the data set with Mus musculus [4] and 3.6 µmol/kg in the data set with Mus musculus [6].
